Screens: PubChem BioAssay, National Center for Advancing Translational Sciences (NCATS)
miR-21 reporter – raises the signal of a miR-21 reporter | Potency, µM (doses to about 38.3 µM), for inactives: top-dose reporter change, positive = more light | HeLa miR-21 FLuc reporter, luciferase, 48 h | AID 2288 | 340,000 tested, under 10 active; active = well fitted rising curve with a large enough effect; inconclusive = small, poorly fitted or top-dose-only effect; inactive = no such curve, though single readings can be large or run the other way;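 also: % of control where 0% means no effect; miR-21 action dims this reporter so a rising signal means less miR-21 action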
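Luminescence from a firefly luciferase reporter carrying a miR-21 binding site downstream, stably expressed under a CMV promoter in HeLa cells that make miR-21 endogenously, reports miRNA modulation after 48 h compound exposure up to approximately 40uM final.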
DT40 TDP1 CPT – DT40-hTDP1 cell growth loss with CPT; AID 686979; chicken DT40 Tdp1-/-;hTDP1 cells + 20 nM CPT, ATP luminescence, 48 h; Potency, µM (titrated, usually from 46.2 µM), for the others: at the top dose activity change, negative = growth inhibition, most hits filed as inhibitors; 12% of 420,000 active; note: potency is the fitted concentration of half-maximal effect; % is set by controls: 0 for no effect and ±100 for the full control effect; nearly all actives have a fitted effect of over 55% in size
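Chicken DT40 Tdp1-/- cells stably complemented with human TDP1 were seeded at 400 cells/well in medium containing 20 nM camptothecin, exposed to pin-transferred compounds, and grown at 37 °C for at least 48 hr. Viability was read as ATP luminescence.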
uPA generation – cell surface uPA generation inhibition | cell surface uPA generation assay, qHTS | Potency, µM (top dose mostly 38.3 µM), without a hit: at the highest dose activity change, negative = inhibition, actives largely listed as inhibitors | 0.31% of 330,000 active; active = well fitted inhibition curve with a large enough effect; inconclusive = small, poorly fitted or top-dose-only effect; inactive = no such curve, though single readings can be large or run the other way; tested in mouse RAW 264.7 cells; note: potency is the fitted concentration of half-maximal effect; % is set by controls: 0 for no effect and ±100 for the full control effect; nearly all actives have a fitted effect of over 55% in size
DT40 TDP1 no CPT – qHTS for Inhibitors of human tyrosyl-DNA phosphodiesterase 1 (TDP1): qHTS in cells in absence of CPT; DT40 Tdp1-/- hTDP1 cells, no CPT, ATP luminescence, 48 h; Potency, µM (highest dose often 46.2 µM), inactives show at the highest dose activity change, negative = growth inhibition, actives largely listed as inhibitors; 15% of 420,000 active; note: potency is the fitted concentration of half-maximal effect; % is set by controls: 0 for no effect and ±100 for the full control effect; nearly all actives have a fitted effect of over 55% in size
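Seeded 400 DT40-hTDP1 cells/well (vehicle DMSO, no 20 nM CPT); pinned compounds; ≥48 hr at 37 °C; CellTiter-Glo luminescence as viability measure.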
TDP1 inh – TDP1 (human) enzyme inhibition | AID 485290 | 0.28% of 350,000 active | recombinant TDP1, AlphaScreen DNA substrate cleavage | Potency, µM (doses to about 130 µM), for the others: at the top dose activity change, negative = inhibition, actives largely listed as inhibitors | Q9NUW8; note: potency is the fitted concentration of half-maximal effect; % is set by controls: 0 for no effect and ±100 for the full control effect; nearly all actives have a fitted effect of over 40% in size
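Enzyme-compound mixtures sat 15 min at room temperature, followed by a 5 min reaction with 15 nM final substrate and 10 min with AlphaScreen beads. Recombinant human Tdp1 was used at 1 nM final.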
Active calls of the source: *. In the library only some 16% were active in any assay of this set; here they are far more common. Unless noted, calls come from the whole dose curve; as a rule, active = well fitted curve in the direction sought with a large enough effect; inconclusive = small, poorly fitted or top-dose-only effect, or another doubt; inactive = no such curve, though single readings can be large; an effect the other way counts as inactive or inconclusive.

Cc1ccnc(NC(=S)NC(=O)/C=C/c2ccc(Cl)cc2)c1 was read as miR-21 reporter -33.4%, DT40 TDP1 CPT -3.7%, uPA generation 4.2%, DT40 TDP1 no CPT -14.6% and TDP1 inh -3.0%.
For CC1Cc2ccccc2N1S(=O)(=O)c1cccc(C(=O)OCC(=O)NCc2ccco2)c1 (centres undefined) the results were miR-21 reporter -5.2%, DT40 TDP1 CPT -4.3%, uPA generation 0.4%, DT40 TDP1 no CPT -11.6% and TDP1 inh 2.6%.
Cc1ccc(NS(=O)(=O)c2ccc(NC(=O)c3ccc(-c4ccccc4)cc3)cc2)c(C)c1 was read as DT40 TDP1 CPT 23.1µM*, uPA generation 4.4% and DT40 TDP1 no CPT 23.1µM*.
CCN(c1ccccc1)c1ncnc2c1cnn2-c1ccccc1 was read as miR-21 reporter -62.5%, DT40 TDP1 CPT inconclusive, uPA generation 3.8%, DT40 TDP1 no CPT inconclusive and TDP1 inh 2.6%.
For CCN(c1ccccc1)c1nc(Cl)nc2c1cnn2C the results were DT40 TDP1 CPT inconclusive, uPA generation -10.4% and DT40 TDP1 no CPT 13µM*.
`COc1ccc(C(=O)CSc2nnc(CN3CCCCC3)n2-c2ccc(F)cc2)cc1` gave miR-21 reporter -6.2%, DT40 TDP1 CPT 20.6µM*, uPA generation 2.6%, DT40 TDP1 no CPT 13µM* and TDP1 inh 2.3%.
Cc1nnc(C)c2c(C)n(-c3ccc4ncccc4c3)c(C)c12 was read as miR-21 reporter 1.4%, DT40 TDP1 CPT 11.6µM*, uPA generation 0.1%, DT40 TDP1 no CPT inconclusive and TDP1 inh -2.5%.
Screening COc1ccc(C(C)=O)cc1CSc1nnc(-c2ccc(Cl)cc2)n1-c1ccccc1 returned miR-21 reporter -4.4%, DT40 TDP1 CPT 13µM*, uPA generation 0.9%, DT40 TDP1 no CPT 13µM* and TDP1 inh 9.5%.
`COc1ccc(C(=O)NCc2nnc(SCC(=O)Nc3ccc(F)cc3)n2-c2ccccc2)cc1` gave miR-21 reporter -0.2%, DT40 TDP1 CPT inconclusive, DT40 TDP1 no CPT inconclusive and TDP1 inh 3.5%.
`O=C1c2ccccc2C(=O)N1c1ccc2ncccc2c1` gave DT40 TDP1 CPT 0.0%, DT40 TDP1 no CPT -0.6% and TDP1 inh -13.6%.
`CCOc1ccc(-n2c(C)c3c(C)nnc(C)c3c2C)cc1` gave DT40 TDP1 CPT 2.91µM* and DT40 TDP1 no CPT 2.06µM*.
Screening COc1ccc(C(C)=O)cc1CSc1nnc2c(Cl)cc(Cl)cn12 returned miR-21 reporter -9.0%, DT40 TDP1 CPT -17.1%, uPA generation -1.3%, DT40 TDP1 no CPT 6.2% and TDP1 inh 2.6%.

Entries shown so far containing fluorine, in the order listed:
`COc1ccc(C(=O)CSc2nnc(CN3CCCCC3)n2-c2ccc(F)cc2)cc1` gave miR-21 reporter -6.2%, DT40 TDP1 CPT 20.6µM*, uPA generation 2.6%, DT40 TDP1 no CPT 13µM* and TDP1 inh 2.3%.
`COc1ccc(C(=O)NCc2nnc(SCC(=O)Nc3ccc(F)cc3)n2-c2ccccc2)cc1` gave miR-21 reporter -0.2%, DT40 TDP1 CPT inconclusive, DT40 TDP1 no CPT inconclusive and TDP1 inh 3.5%.

New compounds follow.
CCOc1ccc(-n2c(=O)c3ccccc3c3ccccc3c2=O)cc1 was read as miR-21 reporter -2.1%, DT40 TDP1 CPT 2.9%, uPA generation -1.2%, DT40 TDP1 no CPT 2.6% and TDP1 inh 3.6%.
CCOC(=O)N1CCC(NC(=O)c2cc(S(=O)(=O)N(CC)CC)ccc2F)CC1 was read as miR-21 reporter 1.4%, DT40 TDP1 CPT -20.2%, uPA generation -2.0%, DT40 TDP1 no CPT -23.7% and TDP1 inh 0.0%.
CC(=O)NCCc1c(Cc2ccccc2)[nH]c2ccccc12 was read as DT40 TDP1 CPT inconclusive, DT40 TDP1 no CPT inconclusive and TDP1 inh 7.3%.
CCOCCCNS(=O)(=O)c1ccc(Br)cc1 was read as miR-21 reporter -2.4%, DT40 TDP1 CPT -7.4%, uPA generation 5.2%, DT40 TDP1 no CPT -3.9% and TDP1 inh 2.2%.
O=C(CSc1nnc(-c2ccc(Br)cc2)n1-c1ccccc1)c1ccccc1 was read as miR-21 reporter 0.4%, DT40 TDP1 CPT 7.31µM*, DT40 TDP1 no CPT 4.11µM* and TDP1 inh 1.5%.
For Cc1cc(C)cc(-n2c(C)c3c(C)nnc(C)c3c2C)c1 the results were miR-21 reporter 2.0%, DT40 TDP1 CPT 8.2µM*, uPA generation -8.7%, DT40 TDP1 no CPT 7.31µM* and TDP1 inh 7.6%.
Cc1ccc(-c2nnc(SCC(=O)c3ccc(Cl)cc3)n2-c2ccccc2)cc1 was read as miR-21 reporter 2.4%, DT40 TDP1 CPT 4.61µM*, DT40 TDP1 no CPT 8.2µM* and TDP1 inh -5.4%.
Screening Cc1ccc(C(=O)CSc2nnc(-c3ccccc3)n2-c2ccccc2)cc1 returned miR-21 reporter -4.2% and TDP1 inh 7.1%.
For CCOc1ccc(-c2nnc(SCC(=O)c3ccc(F)cc3)n2-c2ccccc2)cc1 the results were miR-21 reporter -6.8%, DT40 TDP1 CPT 13µM*, DT40 TDP1 no CPT inconclusive and TDP1 inh 8.4%.
`Cc1csc(NC(=O)C2CCCCC2)n1` gave miR-21 reporter -39.7%, DT40 TDP1 CPT inconclusive, uPA generation 0.0% and DT40 TDP1 no CPT inconclusive.
O=C(COC(=O)c1ccccc1OCCOc1ccccc1)Nc1ccc(Br)cc1 was read as DT40 TDP1 CPT -6.1% and DT40 TDP1 no CPT -1.1%.
`O=C(CSc1nnc2ccc3ccccc3n12)c1ccc(F)cc1` gave miR-21 reporter -72.1%, DT40 TDP1 CPT inconclusive and DT40 TDP1 no CPT 16.4µM*.

Looked up one by one from the entries so far:
O=C(CSc1nnc(-c2ccc(Br)cc2)n1-c1ccccc1)c1ccccc1 was read as miR-21 reporter 0.4%, DT40 TDP1 CPT 7.31µM*, DT40 TDP1 no CPT 4.11µM* and TDP1 inh 1.5%.
CCOC(=O)N1CCC(NC(=O)c2cc(S(=O)(=O)N(CC)CC)ccc2F)CC1 was read as miR-21 reporter 1.4%, DT40 TDP1 CPT -20.2%, uPA generation -2.0%, DT40 TDP1 no CPT -23.7% and TDP1 inh 0.0%.

The list continues:
CCOc1ccc(-c2nnc(-c3ccccc3)n2-c2ccccc2)cc1 was read as miR-21 reporter -33.6%, DT40 TDP1 CPT inconclusive, uPA generation 4.0%, DT40 TDP1 no CPT 10.3µM* and TDP1 inh 0.0%.
CCOc1ccc(-c2nnc(-c3ccccc3)o2)cc1 was read as miR-21 reporter -43.2%, DT40 TDP1 CPT -1.3%, uPA generation -18.5%, DT40 TDP1 no CPT inconclusive and TDP1 inh -5.0%.
`COc1cc(-c2ccc(NC(=O)NC3CC3)c(OC)c2)ccc1NC(=O)NC1CC1` gave miR-21 reporter 11.0% and TDP1 inh 2.9%.
`O=C(COC(=O)/C=C/c1ccc(F)cc1)NCc1ccco1` gave miR-21 reporter -4.7%, DT40 TDP1 CPT 9.6%, uPA generation -0.2%, DT40 TDP1 no CPT 4.6% and TDP1 inh 7.5%.
Screening COc1ccc(OC)c(/C=C/C(=O)OCC(=O)NCc2ccccc2)c1 returned DT40 TDP1 CPT -29.5%, uPA generation 1.6%, DT40 TDP1 no CPT -24.0% and TDP1 inh -6.6%.
`COc1ccc(C(C)=O)c(OCC(=O)NCCC2=CCCCC2)c1` gave DT40 TDP1 CPT -75.3% and DT40 TDP1 no CPT 0.581µM*.
`COc1ccc(/C=C/C(=O)Nc2c(C(=O)O)[nH]c3ccccc23)cc1OC` gave miR-21 reporter -13.8%, DT40 TDP1 CPT 20.6µM*, uPA generation 0.9%, DT40 TDP1 no CPT inconclusive and TDP1 inh 3.7%.
`COc1cc(/C=C/C(=O)OCC(=O)NCc2ccco2)ccc1O` gave DT40 TDP1 CPT 20.6µM*, uPA generation -10.4%, DT40 TDP1 no CPT 16.4µM* and TDP1 inh -3.5%.
Screening COc1ccc(OCC(=O)NCCC2=CCCCC2)c([N+](=O)[O-])c1 returned miR-21 reporter -9.8%, DT40 TDP1 CPT inconclusive, uPA generation 6.8%, DT40 TDP1 no CPT inconclusive and TDP1 inh 5.4%.
